From PubChem BioAssay AID652017 (The Scripps Research Institute Molecular Screening Center, 2013) come the findings set out here.

This is a selection; strong and weak results do not stand in their true shares. Calls of active or inactive are those of the source. Rule as the data show it: active = activation above about 7.8%; inactive = the rest.

The nature of the experiment: SMARCA2 (BRM) function activators, primary screen, cell-based, luminescence, high throughput (AID 652017).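 Also: 0% = vehicle wells and 100% = reference activator wells.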 The following applies: MG213 cells, MMTV-luciferase reporter, dexamethasone, overnight; at 9.1 µM; stronger effect = higher value.
For the molecule `CN1CCCC(OC(=O)C(c2ccccc2)c2ccccc2)C1` (configuration not stated), the activation is inactive: -1.29%.

Consider `Clc1ccc(Cl)c(NC2=NCC(CBr)S2)c1` (configuration not stated), for which the activation is inactive: -2.47%.

For `COc1ccccc1OP(=O)(Nc1ccc(C)cn1)Oc1ccccc1OC`, the activation was inactive: -3.97%. For the molecule `Cc1ccc(OP(=O)(Nc2nccs2)Oc2ccc(C)cc2)cc1`, the activation was inactive: -3.26%. In the case of `Nc1cccc2ccc([As](=O)(O)O)cc12`, the activation is inactive: 0.96%. Turning to `CN(C(=O)Cc1ccccc1)C1CC[C@@]2(CCCO2)C[C@@H]1N1CCCC1` (some centres not stated), the activation is inactive: -2.53%.

As for `CCN(N=Nc1nonc1N)c1nonc1N`, the activation was inactive: 6.05%. With `O=P(Nc1nc2ccc(Cl)cc2s1)(c1ccccc1)c1ccccc1` the figure was inactive: 0.19%. Regarding `CN(C)P(=O)(N(C)C)n1c(Nc2ccccc2)nnc1-c1ccccc1`, the activation is inactive: -3.67%. On to `CC(=O)Nc1ccc([As](=O)(O)O)cc1`, for which the activation is inactive: -0.98%. Take `O=C(O)c1ccccc1[As](=O)(O)O`: the activation was inactive: 1.14%.

For the molecule `CCCC1OP(N)(=O)OCC1CC` (configuration not stated), the activation was inactive: 3.82%.

As to `CCn1c(=O)n(C2CCN(CC3CCCCCCC3)C[C@H]2CO)c2ccccc21` (some centres not stated), the activation is inactive: 0.93%.

Turning to `Cc1cc(SC(NC(=O)c2ccc(F)cc2)C(Cl)(Cl)Cl)ncn1` (configuration not stated), the activation was inactive: 1.2%.

`CCOP(=O)(Nc1ccccc1)OCC`: the activation was inactive: 2.36%. For `CN(C(=O)Cc1ccc(Cl)c(Cl)c1)[C@H]1CCCC[C@@H]1N1CCCC1`, the activation is inactive: -4.89%. With `Cc1ccc(NP(=O)(Oc2ccccc2F)Oc2ccccc2F)nc1`, the activation was inactive: 0.95%.

`O=C(OC1CN2CCC1CC2)c1ccccc1` (configuration not stated): the activation is inactive: -1.47%.

On to `CCC(=O)N1C2C3N(C(=O)CC)C1C1N(C(=O)CC)C(C(N1C(=O)CC)N3C(=O)CC)N2C(=O)CC`, for which the activation was inactive: 0.26%. Turning to `COC(=O)c1cc2c(s1)N=C(c1ccccc1)N(C)P2(=O)N1CCOCC1` (configuration not stated), the activation is inactive: 0.66%. With `CC(=O)NC(SC(=S)N(CC(C)C)CC(C)C)C(Cl)(Cl)Cl` (configuration not stated) the figure was inactive: -2.24%. As for `Cc1ccc(OP(=O)(Nc2ccccn2)Oc2ccc(C)cc2)cc1`, the activation was inactive: -2.55%. With `CC(NC(=O)COC(=O)C(O)(c1ccccc1)c1ccccc1)c1ccccc1` (configuration not stated) the figure was inactive: 1.75%; with `Cc1ccccc1OP(=O)(Nc1ccccn1)Oc1ccccc1C`, inactive: -5.75%. Under `O=c1c2cc([N+](=O)[O-])ccc2[nH]c2c([N+](=O)[O-])cc([N+](=O)[O-])cc12` stands inactive: -4.17%; under `CN(C)C(=O)Oc1noc2ccccc12`, inactive: -0.06%. For the molecule `c1ccc(-c2nn[nH]n2)c(-c2nn[nH]n2)c1`, the activation was inactive: -4.35%. With `Cc1ccc(NP(=O)(Oc2cccc(C)c2)Oc2cccc(C)c2)nc1` the figure was inactive: -4.63%; with `O=C(NC1CCS(=O)(=O)C1)NP(=S)(Oc1ccccc1)Oc1ccccc1` (configuration not stated), inactive: -2.82%. Under `CCNC(=S)/N=C(\N)N[N+](=O)[O-]` stands inactive: -2.89%. For the molecule `O=P1(N(CCCl)CCCl)OCCC2CCCCN21` (configuration not stated), the activation was inactive: -8.21%. Turning to `Cc1ccccc1CN(C)C(=O)COC(=O)C(O)(c1ccccc1)c1ccccc1`, the activation was inactive: -0.92%. For `C[C@H]1OP(=O)(Oc2ccccc2)C[C@@H]2O[C@@H]21` (some centres not stated), the activation is inactive: 2.31%.

With `C[C@@H]1C=CCP(=O)(Oc2ccccc2)O1` (some centres not stated), the activation was inactive: -1.99%.

Turning to `CC(=O)c1ccc(N2CC2c2ccncc2)cc1` (configuration not stated), the activation was inactive: 1.44%. With `N#C/C(=C\c1ccc(N(CCBr)CCBr)cc1)C(N)=O` the figure was inactive: 2.11%. For the molecule `COC(=O)C1(C)COP(=O)(NCc2ccccc2)OC1` (configuration not stated), the activation was inactive: -1.73%.

In the case of `CC(=O)Nc1ccc([As](=O)(O)O)c(O)c1`, the activation was inactive: 0.87%.

Consider `CC(=O)Nc1ccc(Oc2c([N+](=O)[O-])cc([N+](=O)[O-])cc2[N+](=O)[O-])cc1`, for which the activation is inactive: -4.84%. Under `O=P1(Nc2nc3ccc(Cl)cc3s2)COc2ccccc2O1` (configuration not stated) stands inactive: -0.42%; under `CCOc1ccc(C2=NCC(CBr)S2)cc1` (configuration not stated), inactive: 0.51%.

For `CC(C)(C)C(=O)NC(Sc1ccccc1)C(Cl)(Cl)Cl` (configuration not stated), the activation is inactive: 2.54%. Consider `CCc1cc(O)c([N+](=O)[O-])c(C)c1[N+](=O)[O-]`, for which the activation was inactive: 0.94%.

Turning to `O=P(Nc1nccs1)(c1ccccc1)c1ccccc1`, the activation was inactive: -1.39%. On to `CC(C)C(=O)NC(Sc1ccccc1)C(Cl)(Cl)Cl` (configuration not stated), for which the activation was inactive: 0.96%. As for `c1nnnn1CCn1cnnn1`, the activation is inactive: -4.98%.

Take `O=[As](O)(c1ccccc1)c1ccc(O)cc1`: the activation was inactive: -0.52%.

As for `CC(=O)NC(SC(=S)N(C)C)C(Cl)(Cl)Cl` (configuration not stated), the activation is inactive: 5.05%. With `O=[N+]([O-])c1ncn(CCn2cnc([N+](=O)[O-])n2)n1`, the activation was inactive: -2.84%. With `O=C(OC1CN2CCC1CC2)c1cccc(Cl)c1` (configuration not stated) the figure was inactive: 4.03%; with `C/C(N)=N\P(=O)(OCc1ccccc1)OCc1ccccc1`, inactive: -0.29%; with `C(Cc1nn[nH]n1)Cc1nn[nH]n1`, inactive: -0.29%.

As for `Nc1ccc([As](=O)(O)c2ccc([N+](=O)[O-])cc2)cc1`, the activation was inactive: 0.05%.

With `CN(C)C1(CNC(=O)c2ccc(Cl)c(S(N)(=O)=O)c2)CCCCC1`, the activation was inactive: -2.1%. Regarding `O=P(Nc1ccccn1)(c1ccc(Br)cc1)c1ccc(Br)cc1`, the activation is inactive: -3.05%.

Turning to `COc1ccc(N)c([N+](=O)[O-])c1[N+](=O)[O-]`, the activation is inactive: -4.5%. Under `Nc1ccc(CCCCOc2ccccc2)cc1` stands inactive: -3.24%. In the case of `O=P(Nc1nc2ccccc2s1)(c1ccccc1)c1ccccc1`, the activation was inactive: -1.92%. In the case of `C[C@H]1OP(=O)(Oc2ccccc2)[C@H](O)[C@H](O)[C@H]1N=[N+]=[N-]` (some centres not stated), the activation is inactive: -0.83%. Under `Cc1ccc(S(=O)(=O)N(CCCN)CCCc2c(C)nc(N)[nH]c2=O)cc1` stands inactive: 5.76%. As for `O=P1(Nc2ncccn2)COc2ccccc2OC1`, the activation was inactive: -0.75%. As to `Nc1cccc([As](=O)(O)c2ccccc2)c1`, the activation is inactive: -1.85%. Take `Cc1ccc(OCC(=O)OC2CN3CCC2CC3)cc1` (configuration not stated): the activation was inactive: -4.08%. Consider `O=[As](O)(c1cccs1)c1cccs1`, for which the activation was inactive: -2.94%. With `NS(=O)(=O)c1cccc(NC(=O)COC(=O)C(O)(c2ccccc2)c2ccccc2)c1`, the activation is inactive: 7.57%. In the case of `O=P1(Nc2ccc(Br)cn2)COc2ccccc2OC1`, the activation was inactive: -1.34%. For the molecule `Cc1nn(-c2ccccc2)c2c1P(=O)(N1CCOCC1)N(C)C(c1ccccc1)=N2` (configuration not stated), the activation is inactive: 3.06%. For `Cc1ccc(C(=O)OC2CN3CCC2CC3)cc1` (configuration not stated), the activation is inactive: -3.09%. Under `CC1CCC(C(C)C)C(OP(=O)(Nc2ccccn2)c2ccccc2)C1` (configuration not stated) stands inactive: 0.45%; under `CN(C)C1(CNC(=O)c2ccc(S(C)(=O)=O)cc2)CCCCC1`, inactive: 0.37%. With `O=C(/C=C/c1ccccc1)OC1CN2CCC1CC2` (configuration not stated), the activation was inactive: 1.14%. Turning to `CCCC1OP(=O)(Nc2ccccc2)OCC1CC` (configuration not stated), the activation was inactive: -1.46%. As for `COc1ccccc1CNC(=O)COC(=O)C(O)(c1ccccc1)c1ccccc1`, the activation was inactive: -0.34%. Under `CN(C(=O)Cc1ccc(Cl)c(Cl)c1)[C@@H]1CCCC[C@H]1N1CCCC1` stands inactive: -2.99%; under `CC(C)/C=N\N=C(\N)N[N+](=O)[O-]`, inactive: 0.87%; under `CN(C(=O)Cc1ccc(Cl)c(Cl)c1)C1CCCC[C@@H]1N1CCCC1` (some centres not stated), inactive: 4.39%. With `CC1(CBr)Cn2c(nc3ccccc3c2=O)S1` (configuration not stated) the figure was inactive: -0.45%; with `CCC1=CC2Cc3nc4ccc(Cl)cc4c(N)c3C(C1)C2` (configuration not stated), inactive: 1.77%; with `O=P1(Nc2ccccn2)COc2ccccc2OC1`, inactive: 2.09%. In the case of `CCOP(=O)(NC(=NC(C)c1ccccc1)NC(C)c1ccccc1)OCC` (configuration not stated), the activation is inactive: -0.17%. On to `CCOP(=O)(Nc1ccc(C)cn1)OCC`, for which the activation is inactive: -0.54%. Take `CN(CCCl)Cc1cc(Cl)c(NC2=NCCN2)c(Cl)c1`: the activation was inactive: -1.7%. Consider `Clc1n[nH]nc1-c1nn[nH][15n]1`, for which the activation is inactive: 0.37%. As to `O=P1(N(CCCl)CCCl)NCCC(C(F)(F)F)O1` (configuration not stated), the activation is inactive: -3.43%. For `CC(C)(C)C(=O)NC(Sc1ncccn1)C(Cl)(Cl)Cl` (configuration not stated), the activation is inactive: -2.25%. With `Cc1ccc(NCCc2c([N+](=O)[O-])cc([N+](=O)[O-])cc2[N+](=O)[O-])cc1`, the activation is inactive: 3.24%. On to `Nc1cccc2c([As](=O)(O)O)cccc12`, for which the activation is inactive: -2.99%. With `CCCOP(=S)(Nc1nc(N)cc(=O)[nH]1)OCCC` the figure was inactive: 0.44%; with `COc1cc(C2NCCC3(OCCO3)C2(C)C)cc(OC)c1OC` (configuration not stated), inactive: 3.86%.

Consider `CCOP(=O)(Nc1cccc2ccccc12)OCC`, for which the activation is inactive: 1.56%. `O=C(OC1CN2CCC1CC2)c1ccc(Cl)cc1` (configuration not stated): the activation is inactive: -1.81%.

Take `O=[As](O)(O)c1cccnc1`: the activation is inactive: -2.25%. For `COc1cc(C(=O)NCC2(N3CCOCC3)CCCCC2)cc(Cl)c1OC(C)C`, the activation is inactive: -2.64%. Turning to `CS(=O)(=O)c1ccc(Cl)c(NC(=O)COC(=O)C(O)(c2ccccc2)c2ccccc2)c1`, the activation is inactive: 0.91%. As for `Cc1cccc(OCC(=O)OC2CN3CCC2CC3)c1` (configuration not stated), the activation was inactive: 2.78%. Turning to `O=[As](O)(c1cccc(O)c1)c1cccc(O)c1`, the activation is inactive: -0.06%. For `NC(=O)Nc1ccc([As](=O)(O)O)cc1`, the activation was inactive: 1.73%. Turning to `N#CCCN(C(=O)COC(=O)C(O)(c1ccccc1)c1ccccc1)c1ccc(F)cc1`, the activation was inactive: -0.89%.

For the molecule `CCOP1(=S)c2c(C)nn(CCC#N)c2N=C(c2ccc(F)cc2)N1C` (configuration not stated), the activation is inactive: -2.18%. As for `CN(C(=O)Cc1ccccc1)[C@@H]1CC[C@]2(CCCO2)C[C@H]1N1CCCC1`, the activation was inactive: -1.58%. With `O=[N+]([O-])c1ccc2c(c1)nnn2O` the figure was inactive: -2.27%; with `CN(C)C(=O)c1cc([N+](=O)[O-])cc2c1-c1c(cc([N+](=O)[O-])cc1[N+](=O)[O-])C2=O`, inactive: -6.05%.
